# Columns and labels:
# [1] = Rotorod test and body weight, 5 weeks treatment; settings: 30 mg/kg q.o.d. s.c. for 5 weeks
# A2058 human melanoma = assay: Antitumor activity, SCID mice bearing s.c. A2058 human melanoma; format: in vivo; settings: during the A2058 study
# Text: Each group consisted of 5 mice. […] 500 mm^3.
# LLC = assay: Antitumor activity, C57BL/6J mice bearing s.c. LLC
# Text: Male C57BL/6J mice (˜8 weeks, ˜20 g) were inoculated with 5×10^6 viable LLC or A2058 melanoma cells s.c. The tumors were allowed to grow to a volume of approximately 100 mm^3. […] Each group consisted of 5 mice. Mice were euthanized when tumors reached or surpassed a size equivalent to 30% of their body weight. Animals were weighed daily and observed for signs of tumor progression and euthanized if their body weight decreased below 80% of their starting weight. Animals were monitored for general health, weight loss, and tumor progression. At termination, mice underwent post-mortem examination and tumors were dissected and weighed. […] The same dosing schedule was repeated with white SCID male mice (˜8 weeks, 20 g) inoculated with 5×10^6 viable A2058 human melanoma cells s.c. and treated as described above.
# [2] = phosphate buffered saline or citrate buffer, pH 5.5, 0.2 M at 37° C., no enzyme
# Early mouse development = settings: injected into 7 and 17 day-old mice
# [3] = cited from earlier work
substance,measurement,setting,value
HPMA copolymer-Gly-Phe-Leu-Gly (SEQ ID NO: 1)-ethylenediamine-TNP-470 [HPMA copolymer-TNP-470],body weight,[1],gained weight similar to control mice
same,time remaining on the rotating rod,[1],indistinguishable from that of control mice
same,deaths due to toxicity and weight loss,A2058 human melanoma,neither deaths due to toxicity nor weight loss
same,weight loss,LLC; 30 mg/kg q.o.d.,did not induce weight loss
same,animal weight loss,LLC; 90 mg/kg/q.o.d.,no animal weight loss
same,stability of the conjugate,[2],stable for three days
same,half-life in circulating serum,estimated,up to 24 hours
same,time post injection that TNP-470 active species were present in sera and tumors,mice injected with the conjugate,up to 48 h
same,effect on normal development (weight gain) of newborn mice,Early mouse development; listed as Conjugated TNP-470,did not affect body weight
same,effect on normal development (weight gain) of newborn mice,Early mouse development; listed as HPMA copolymer-TNP-470 conjugate,developed similarly to the control group
HPMA copolymer-doxorubicin [PK1],t1/2a,[3]; clinical pharmacokinetics,1.8 h
same,time to low blood levels (renal elimination),[3]; in animals and in humans,1 to 5 h
same,maximum tolerated dose,[3]; phase I,320 mg/m^2

# Source: patent US6949584B2, “TNP-470 species, polymer conjugates and use thereof” (Children's Medical Center Corporation, priority 2002, dated 2005)
